Values of other authors as cited in paper PMC5641599 (Molecular Metabolism, 2017).

Chains of the proteins cited; added tags and fusions are not shown.
UniProt P32245, whole entry G238D: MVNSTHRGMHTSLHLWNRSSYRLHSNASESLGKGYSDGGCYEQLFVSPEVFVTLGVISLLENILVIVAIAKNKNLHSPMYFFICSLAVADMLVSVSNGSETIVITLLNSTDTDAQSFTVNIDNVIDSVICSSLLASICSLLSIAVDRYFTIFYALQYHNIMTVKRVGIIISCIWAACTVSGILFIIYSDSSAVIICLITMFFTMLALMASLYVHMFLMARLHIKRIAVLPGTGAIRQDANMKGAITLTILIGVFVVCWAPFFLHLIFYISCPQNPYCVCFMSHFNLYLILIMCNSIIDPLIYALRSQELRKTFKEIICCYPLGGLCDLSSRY
UniProt P32245, whole entry T178M: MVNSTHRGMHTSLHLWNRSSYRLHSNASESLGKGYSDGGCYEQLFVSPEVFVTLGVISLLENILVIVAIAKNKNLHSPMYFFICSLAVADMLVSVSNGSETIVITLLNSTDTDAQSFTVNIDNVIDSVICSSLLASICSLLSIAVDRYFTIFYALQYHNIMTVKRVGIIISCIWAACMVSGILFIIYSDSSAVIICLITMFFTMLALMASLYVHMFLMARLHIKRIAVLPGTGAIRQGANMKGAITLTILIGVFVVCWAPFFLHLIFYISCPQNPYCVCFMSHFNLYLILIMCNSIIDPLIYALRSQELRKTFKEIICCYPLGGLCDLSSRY
UniProt P32245, whole entry I69T: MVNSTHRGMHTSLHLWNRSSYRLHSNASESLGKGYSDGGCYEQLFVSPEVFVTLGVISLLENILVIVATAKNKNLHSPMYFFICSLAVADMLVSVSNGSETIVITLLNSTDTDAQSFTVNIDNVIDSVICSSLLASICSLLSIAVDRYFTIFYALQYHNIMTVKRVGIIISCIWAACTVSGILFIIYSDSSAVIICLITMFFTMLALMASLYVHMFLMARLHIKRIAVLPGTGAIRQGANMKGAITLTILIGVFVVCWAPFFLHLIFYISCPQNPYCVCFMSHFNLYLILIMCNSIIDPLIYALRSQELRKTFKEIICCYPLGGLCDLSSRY
UniProt P32245, whole entry A244E: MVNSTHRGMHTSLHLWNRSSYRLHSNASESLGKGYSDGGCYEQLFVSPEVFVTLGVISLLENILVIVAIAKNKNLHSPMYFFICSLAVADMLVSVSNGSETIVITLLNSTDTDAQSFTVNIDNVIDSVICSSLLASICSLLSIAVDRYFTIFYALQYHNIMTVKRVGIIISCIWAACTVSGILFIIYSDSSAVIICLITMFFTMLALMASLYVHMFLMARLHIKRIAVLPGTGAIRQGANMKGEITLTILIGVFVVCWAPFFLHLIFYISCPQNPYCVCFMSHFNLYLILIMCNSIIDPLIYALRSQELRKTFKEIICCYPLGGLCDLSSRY
UniProt P32245, whole entry S94N: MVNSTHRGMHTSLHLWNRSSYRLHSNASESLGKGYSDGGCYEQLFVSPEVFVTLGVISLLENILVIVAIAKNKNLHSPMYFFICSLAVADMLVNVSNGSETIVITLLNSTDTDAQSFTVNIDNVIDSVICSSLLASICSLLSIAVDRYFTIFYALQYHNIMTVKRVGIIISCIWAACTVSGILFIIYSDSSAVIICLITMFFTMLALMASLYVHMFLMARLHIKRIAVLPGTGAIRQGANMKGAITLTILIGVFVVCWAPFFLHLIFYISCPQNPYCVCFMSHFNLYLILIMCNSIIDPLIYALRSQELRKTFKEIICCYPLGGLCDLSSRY
UniProt P32245, whole entry F280L: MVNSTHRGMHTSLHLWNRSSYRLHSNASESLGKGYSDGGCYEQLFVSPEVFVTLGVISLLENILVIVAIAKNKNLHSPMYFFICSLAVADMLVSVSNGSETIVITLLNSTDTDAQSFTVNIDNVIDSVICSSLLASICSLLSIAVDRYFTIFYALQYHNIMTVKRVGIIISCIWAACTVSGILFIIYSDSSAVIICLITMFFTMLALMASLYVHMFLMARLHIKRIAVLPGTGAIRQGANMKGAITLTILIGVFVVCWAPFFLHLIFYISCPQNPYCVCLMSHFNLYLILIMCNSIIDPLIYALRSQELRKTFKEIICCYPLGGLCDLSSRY
UniProt P32245, whole entry I317T: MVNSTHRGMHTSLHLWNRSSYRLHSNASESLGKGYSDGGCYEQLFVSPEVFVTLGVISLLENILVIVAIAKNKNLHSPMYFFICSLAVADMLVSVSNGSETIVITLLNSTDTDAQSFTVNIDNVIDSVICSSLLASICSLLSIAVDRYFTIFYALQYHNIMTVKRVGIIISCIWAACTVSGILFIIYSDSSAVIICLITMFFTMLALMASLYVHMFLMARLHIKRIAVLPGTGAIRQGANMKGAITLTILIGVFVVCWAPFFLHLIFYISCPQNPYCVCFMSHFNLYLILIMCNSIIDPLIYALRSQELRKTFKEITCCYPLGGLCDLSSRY
UniProt P32245, whole entry A219V: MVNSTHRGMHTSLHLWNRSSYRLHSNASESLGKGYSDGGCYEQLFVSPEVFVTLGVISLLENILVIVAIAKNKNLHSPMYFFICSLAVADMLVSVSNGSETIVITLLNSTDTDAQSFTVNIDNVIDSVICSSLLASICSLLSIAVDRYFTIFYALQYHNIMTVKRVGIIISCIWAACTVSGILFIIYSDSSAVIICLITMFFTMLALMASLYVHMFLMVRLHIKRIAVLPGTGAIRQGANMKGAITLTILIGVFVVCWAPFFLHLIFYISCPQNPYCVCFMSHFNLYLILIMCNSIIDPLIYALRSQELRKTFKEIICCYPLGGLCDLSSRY
UniProt P32245, whole entry C271Y: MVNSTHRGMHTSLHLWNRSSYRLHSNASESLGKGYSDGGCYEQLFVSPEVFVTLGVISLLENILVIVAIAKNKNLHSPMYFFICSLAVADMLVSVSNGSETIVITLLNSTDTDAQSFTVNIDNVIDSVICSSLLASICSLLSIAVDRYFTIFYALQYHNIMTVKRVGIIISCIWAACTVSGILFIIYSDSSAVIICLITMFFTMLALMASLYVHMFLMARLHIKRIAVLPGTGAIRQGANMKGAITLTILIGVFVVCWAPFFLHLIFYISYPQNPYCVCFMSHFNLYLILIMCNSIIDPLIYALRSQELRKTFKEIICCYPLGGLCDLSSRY
UniProt P32245, whole entry I316S: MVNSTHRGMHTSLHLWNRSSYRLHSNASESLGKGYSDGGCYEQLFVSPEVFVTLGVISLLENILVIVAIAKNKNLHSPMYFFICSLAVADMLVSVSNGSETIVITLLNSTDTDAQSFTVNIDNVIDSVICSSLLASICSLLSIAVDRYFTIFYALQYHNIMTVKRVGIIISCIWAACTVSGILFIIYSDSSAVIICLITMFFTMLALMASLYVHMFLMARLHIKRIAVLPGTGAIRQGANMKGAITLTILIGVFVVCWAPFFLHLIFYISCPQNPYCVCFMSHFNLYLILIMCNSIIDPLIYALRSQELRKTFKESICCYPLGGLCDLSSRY
UniProt P32245, whole entry G231V: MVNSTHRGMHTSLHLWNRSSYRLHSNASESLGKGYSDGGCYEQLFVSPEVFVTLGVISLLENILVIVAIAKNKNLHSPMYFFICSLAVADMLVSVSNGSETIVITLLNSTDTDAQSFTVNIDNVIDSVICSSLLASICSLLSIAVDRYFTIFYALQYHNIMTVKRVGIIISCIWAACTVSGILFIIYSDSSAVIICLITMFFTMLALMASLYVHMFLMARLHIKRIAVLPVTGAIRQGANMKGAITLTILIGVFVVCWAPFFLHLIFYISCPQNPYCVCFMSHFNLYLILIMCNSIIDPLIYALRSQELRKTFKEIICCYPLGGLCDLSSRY
UniProt P32245, whole entry E308K: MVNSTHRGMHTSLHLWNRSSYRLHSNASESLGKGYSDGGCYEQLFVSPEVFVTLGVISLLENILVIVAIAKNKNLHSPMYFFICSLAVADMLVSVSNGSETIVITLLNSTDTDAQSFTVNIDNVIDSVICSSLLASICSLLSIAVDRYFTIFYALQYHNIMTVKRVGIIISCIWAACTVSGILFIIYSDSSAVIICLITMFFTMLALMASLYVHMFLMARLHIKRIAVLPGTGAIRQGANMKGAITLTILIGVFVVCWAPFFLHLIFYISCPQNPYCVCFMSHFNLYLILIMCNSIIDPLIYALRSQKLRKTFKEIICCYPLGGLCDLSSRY
UniProt P32245, whole entry N240S: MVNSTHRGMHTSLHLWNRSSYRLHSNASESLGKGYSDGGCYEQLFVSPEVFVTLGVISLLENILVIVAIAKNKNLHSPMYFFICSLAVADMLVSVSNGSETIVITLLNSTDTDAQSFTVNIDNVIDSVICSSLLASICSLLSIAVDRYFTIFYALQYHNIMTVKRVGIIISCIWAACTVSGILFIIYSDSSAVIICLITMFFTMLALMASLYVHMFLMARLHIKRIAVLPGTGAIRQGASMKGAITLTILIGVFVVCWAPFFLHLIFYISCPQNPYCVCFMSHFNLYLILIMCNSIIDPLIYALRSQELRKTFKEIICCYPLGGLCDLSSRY
UniProt P32245, whole entry Q156R: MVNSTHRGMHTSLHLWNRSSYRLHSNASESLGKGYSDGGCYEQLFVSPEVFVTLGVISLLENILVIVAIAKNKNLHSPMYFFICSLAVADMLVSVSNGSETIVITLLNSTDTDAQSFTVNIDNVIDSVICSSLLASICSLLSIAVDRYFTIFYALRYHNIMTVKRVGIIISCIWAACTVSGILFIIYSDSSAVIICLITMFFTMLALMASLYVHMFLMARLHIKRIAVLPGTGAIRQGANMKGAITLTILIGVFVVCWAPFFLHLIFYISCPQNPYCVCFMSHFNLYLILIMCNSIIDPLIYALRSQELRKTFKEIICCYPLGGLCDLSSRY
UniProt P32245, whole entry F201L: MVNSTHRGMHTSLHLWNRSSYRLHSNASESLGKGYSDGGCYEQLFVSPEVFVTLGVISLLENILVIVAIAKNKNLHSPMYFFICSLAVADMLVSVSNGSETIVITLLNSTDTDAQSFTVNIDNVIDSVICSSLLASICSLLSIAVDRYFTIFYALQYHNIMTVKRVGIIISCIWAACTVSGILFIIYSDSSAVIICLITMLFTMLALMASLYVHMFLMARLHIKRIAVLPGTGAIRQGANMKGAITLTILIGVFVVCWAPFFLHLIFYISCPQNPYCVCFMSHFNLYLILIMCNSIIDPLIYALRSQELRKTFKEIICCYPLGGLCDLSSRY
UniProt P32245, whole entry T101A: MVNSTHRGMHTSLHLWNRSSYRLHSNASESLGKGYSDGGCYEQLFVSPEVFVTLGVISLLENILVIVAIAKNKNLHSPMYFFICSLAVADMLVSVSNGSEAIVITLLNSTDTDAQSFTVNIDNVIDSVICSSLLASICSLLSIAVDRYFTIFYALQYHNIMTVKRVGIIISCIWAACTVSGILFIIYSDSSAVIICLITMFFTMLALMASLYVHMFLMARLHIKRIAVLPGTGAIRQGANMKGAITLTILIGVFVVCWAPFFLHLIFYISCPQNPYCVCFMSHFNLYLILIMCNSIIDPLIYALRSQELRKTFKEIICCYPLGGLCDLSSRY
UniProt P32245, whole entry S295P: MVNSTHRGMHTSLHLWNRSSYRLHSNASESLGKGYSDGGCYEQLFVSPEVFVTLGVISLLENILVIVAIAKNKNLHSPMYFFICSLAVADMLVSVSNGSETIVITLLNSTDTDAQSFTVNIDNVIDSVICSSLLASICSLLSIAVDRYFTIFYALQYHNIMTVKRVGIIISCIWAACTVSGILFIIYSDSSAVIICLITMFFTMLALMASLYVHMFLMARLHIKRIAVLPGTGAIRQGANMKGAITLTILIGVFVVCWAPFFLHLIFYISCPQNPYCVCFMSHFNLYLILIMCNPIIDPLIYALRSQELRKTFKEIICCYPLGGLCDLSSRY
UniProt P32245, whole entry V253I: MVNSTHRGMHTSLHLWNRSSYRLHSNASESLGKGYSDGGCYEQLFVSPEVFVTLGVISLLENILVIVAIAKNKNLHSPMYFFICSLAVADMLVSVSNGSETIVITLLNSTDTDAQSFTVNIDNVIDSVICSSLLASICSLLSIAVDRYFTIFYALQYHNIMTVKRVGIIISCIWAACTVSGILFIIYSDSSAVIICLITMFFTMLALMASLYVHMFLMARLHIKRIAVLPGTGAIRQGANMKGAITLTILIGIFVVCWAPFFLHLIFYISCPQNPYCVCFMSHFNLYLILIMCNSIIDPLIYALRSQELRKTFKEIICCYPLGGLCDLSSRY
UniProt P32245, whole entry I170V: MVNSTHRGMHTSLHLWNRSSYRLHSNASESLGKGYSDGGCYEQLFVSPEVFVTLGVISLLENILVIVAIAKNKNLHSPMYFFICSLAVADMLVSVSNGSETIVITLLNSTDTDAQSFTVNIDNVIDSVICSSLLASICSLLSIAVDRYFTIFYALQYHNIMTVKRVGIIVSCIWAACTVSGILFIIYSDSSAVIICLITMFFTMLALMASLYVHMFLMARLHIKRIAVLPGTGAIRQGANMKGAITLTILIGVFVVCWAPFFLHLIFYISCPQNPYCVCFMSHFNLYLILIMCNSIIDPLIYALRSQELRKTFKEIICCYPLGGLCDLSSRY

Assays:
[1] = molecular target: MC4R variants (Homo sapiens, UniProt P32245, G238D); settings: MC4R G238D; ref Xiang Z, Biochemistry, 2010; cited from earlier work
[2] = molecular target: MC4R variants (Homo sapiens, UniProt P32245, T178M); settings: MC4R T178M; ref Xiang Z, Biochemistry, 2006; cited from earlier work
[3] = molecular target: MC4R variants (Homo sapiens, UniProt P32245, I69T); settings: MC4R I69T; ref Xiang Z, Biochemistry, 2010; cited from earlier work
[4] = molecular target: MC4R variants (Homo sapiens, UniProt P32245, A244E); settings: MC4R A244E; ref Xiang Z, Biochemistry, 2006; cited from earlier work
[5] = molecular target: MC4R variants (Homo sapiens, UniProt P32245, S94N); settings: MC4R S94N; ref Wang ZQ, Biochim Biophys Acta, 2011; cited from earlier work
[6] = molecular target: MC4R variants (Homo sapiens, UniProt P32245, F280L); settings: MC4R F280L; ref Wang ZQ, Biochim Biophys Acta, 2011; cited from earlier work
[7] = molecular target: MC4R variants (Homo sapiens, UniProt P32245, I317T); settings: MC4R I317T; ref Xiang Z, Biochemistry, 2006; cited from earlier work
[8] = molecular target: MC4R variants (Homo sapiens, UniProt P32245, A219V); settings: MC4R A219V; ref Xiang Z, Biochemistry, 2010; cited from earlier work
[9] = molecular target: MC4R variants (Homo sapiens, UniProt P32245, C271Y); settings: MC4R C271Y; ref Xiang Z, Biochemistry, 2006; cited from earlier work
[10] = molecular target: MC4R variants (Homo sapiens, UniProt P32245, I316S); settings: MC4R I316S; ref Xiang Z, Biochemistry, 2006; cited from earlier work
[11] = molecular target: MC4R variants (Homo sapiens, UniProt P32245, G231V); settings: MC4R G231V; ref Wang ZQ, Biochim Biophys Acta, 2011; cited from earlier work
[12] = molecular target: MC4R variants (Homo sapiens, UniProt P32245, E308K); settings: MC4R E308K; ref Xiang Z, Biochemistry, 2010; cited from earlier work
[13] = molecular target: MC4R variants (Homo sapiens, UniProt P32245, N240S); settings: MC4R N240S; ref Xiang Z, Biochemistry, 2010; cited from earlier work
[14] = molecular target: MC4R variants (Homo sapiens, UniProt P32245, Q156R); settings: MC4R Q156R; COS-7 cell line; ref Hinney A, J Clin Endocrinol Metab, 2006; cited from earlier work
[15] = molecular target: MC4R variants (Homo sapiens, UniProt P32245, F201L); settings: MC4R F201L; ref Wang ZQ, Biochim Biophys Acta, 2011; cited from earlier work
[16] = molecular target: MC4R variants (Homo sapiens, UniProt P32245, T101A); settings: MC4R T101A; ref Hinney A, J Clin Endocrinol Metab, 2006; cited from earlier work
[17] = molecular target: MC4R variants (Homo sapiens, UniProt P32245, S295P); settings: MC4R S295P; ref Xiang Z, Biochemistry, 2010; cited from earlier work
[18] = molecular target: MC4R variants (Homo sapiens, UniProt P32245, V253I); settings: MC4R V253I; ref Xiang Z, Biochemistry, 2006; cited from earlier work
[19] = molecular target: MC4R variants (Homo sapiens, UniProt P32245, I170V); settings: MC4R I170V, cited from earlier work
[20] = molecular target: MC4R variants (Homo sapiens, UniProt P32245, S36Y); settings: MC4R S36Y; ref Xiang Z, Biochemistry, 2010; cited from earlier work
[21] = molecular target: MC4R variants (Homo sapiens, UniProt P32245, I121T); settings: MC4R I121T; ref Xiang Z, Biochemistry, 2010; cited from earlier work
[22] = molecular target: MC4R variants (Homo sapiens, UniProt P32245, L325F); settings: MC4R L325F; ref Xiang Z, Biochemistry, 2010; cited from earlier work
[23] = molecular target: MC4R variants (Homo sapiens, UniProt P32245, R7C); settings: MC4R R7C; COS-7 cell line; ref Hinney A, J Clin Endocrinol Metab, 2006; cited from earlier work
[24] = molecular target: MC4R variants (Homo sapiens, UniProt P32245, M79I); settings: MC4R M79I; ref Wang ZQ, Biochim Biophys Acta, 2011; cited from earlier work
[25] = molecular target: MC4R variants (Homo sapiens, UniProt P32245, T162R); settings: MC4R T162R; COS-7 cell line; ref Ochoa MC, Clin Endocrinol, 2007; cited from earlier work
[26] = molecular target: MC4R variants (Homo sapiens, UniProt P32245, R7H); settings: MC4R R7H; ref Xiang Z, Biochemistry, 2010; cited from earlier work
[27] = molecular target: MC4R variants (Homo sapiens, UniProt P32245, T248A); settings: MC4R T248A; ref Huang H, J Mol Endocrinol, 2012; cited from earlier work
[28] = molecular target: MC4R variants (Homo sapiens, UniProt P32245, A175T); settings: MC4R A175T; ref Xiang Z, Biochemistry, 2006; cited from earlier work

β-MSH
cAMP EC50 - Ligand no.2 (WT fold) [1]: 0.63 WT fold | cAMP EC50 - Ligand no.2 (WT fold) [2]: 0.86 WT fold | cAMP EC50 (WT fold) [3]: 31.73 WT fold | cAMP EC50 - Ligand no.2 (WT fold) [4]: 2.21 WT fold | cAMP EC50 (WT fold) [5]: 2.26 WT fold | cAMP EC50 (WT fold) [6]: 0.52 WT fold | cAMP EC50 (WT fold) [7]: 1.40 WT fold | cAMP EC50 - Ligand no.2 (WT fold) [8]: 14.53 WT fold | cAMP EC50 (WT fold) [9]: 366.67 WT fold | cAMP EC50 (WT fold) [10]: 1.19 WT fold | cAMP EC50 - Ligand no.2 (WT fold) [11]: 0.55 WT fold | cAMP EC50 (WT fold) [12]: 2.70 WT fold | cAMP EC50 - Ligand no.2 (WT fold) [13]: 1.17 WT fold | cAMP EC50 - Ligand no.2 (WT fold) [14]: 0.57 WT fold | cAMP EC50 - Ligand no.2 (WT fold) [15]: 1.64 WT fold | cAMP EC50 (WT fold) [16]: 1.78 WT fold | cAMP EC50 (WT fold) [17]: 2.30 WT fold | cAMP EC50 - Ligand no.2 (WT fold) [18]: 1.07 WT fold | cAMP EC50 - Ligand no.2 (WT fold) ([19]; COS-7 cell line, ref Hughes DA, Hum Genet, 2009): 3.80 WT fold | cAMP EC50 - Ligand no.2 (WT fold) ([19]; ref Xiang Z, Biochemistry, 2006): 1.38 WT fold | cAMP EC50 - Ligand no.2 [20]: 1.70 WT fold | cAMP EC50 - Ligand no.2 (WT fold) [21]: 3.17 WT fold | cAMP EC50 (WT fold) [22]: 1.10 WT fold | cAMP EC50 - Ligand no.2 [23]: 3.00 WT fold | cAMP EC50 (WT fold) [24]: 87.65 WT fold | cAMP EC50 - Ligand no.2 (WT fold) [25]: 1.10 WT fold | cAMP EC50 - Ligand no.2 [26]: 0.60 WT fold | cAMP EC50 - Ligand no.2 (WT fold) [27]: 1.13 WT fold | cAMP EC50 - Ligand no.2 (WT fold) [28]: 1.50 WT fold

Like-named read-outs stand apart in the source and are kept apart here.
